Tested on: human erythrocytes
Experiment: Hemolytic activity assay
Format: cell-based

Row | SMILES | Hemolytic toxicity to human erythrocytes
1 | Cc1cc(/C=C2\Sc3ccccc3N2CCCN2CCC(C)CC2)c2ccccc2[n+]1C.[I-] [Compound 4a4, (Z)-1,2-Dimethyl-4-((3-(3-(4-methylpiperidin-1-yl)propyl)benzo[d]thiazol-2(3H)-ylidene)methyl)quinolin-1-ium iodide] | did not exhibit hemolytic toxicity
2 | CC1CCN(CCCN2/C(=C/c3cc[n+](C)c4ccccc34)Sc3ccccc32)CC1.[I-] [Compound 4b4, (Z)-1-Methyl-4-((3-(3-(4-methylpiperidin-1-yl)propyl)benzo[d]thiazol-2(3H)-ylidene)methyl)quinolin-1-ium iodide] | did not exhibit hemolytic toxicity
